Assay results as given in publication PMC11602913, “Lead-it-EAZY! GMP-compliant production of [^212Pb]Pb-PSC-PEG2-TOC” (EJNMMI Radiopharmacy and Chemistry, 2024).

Test system: neuroendocrine tumours (NET)
Assay: Individual patient application of the 212Pb-labelled peptide
Format: in vivo, human
Details: patients, doses of 1–1.5 MBq/kg
Description: The precursor concentration (0.1 µg/MBq) results in a maximum mass of 50 µg (31.7 nmol) for 500 MBq ^212Pb-labelled peptide, which is half to the mass used for routine ^177Lu-preparations with 5000 MBq (Brogsitter et al. [2017]). At this concentration, any ^212Bi generated during the reaction time by free ^212Pb is rebound by the precursor (Li et al. [2023]). Typically, doses of 1–1.5 MBq/kg were administered per patient. […] The detailed results of patient treatments will be discussed in a further publication.

[^212Pb]Pb-PSC-PEG2-TOC [[^212Pb]Pb-VMT-α-NET]
adverse effects: only weak adverse effects
